This note sets out measurements from ChEMBL document CHEMBL2062477, “Dual-Specificity Phosphatase CDC25A/B Inhibitor Identified from a Focused Library with Nonelectrophilic Core Structure” (ACS Med Chem Lett, 2012).

Assay [1] concerns the target T1, M-phase inducer phosphatase 2 (Homo sapiens, UniProt P30305).
T1 sequence (P30305 whole entry): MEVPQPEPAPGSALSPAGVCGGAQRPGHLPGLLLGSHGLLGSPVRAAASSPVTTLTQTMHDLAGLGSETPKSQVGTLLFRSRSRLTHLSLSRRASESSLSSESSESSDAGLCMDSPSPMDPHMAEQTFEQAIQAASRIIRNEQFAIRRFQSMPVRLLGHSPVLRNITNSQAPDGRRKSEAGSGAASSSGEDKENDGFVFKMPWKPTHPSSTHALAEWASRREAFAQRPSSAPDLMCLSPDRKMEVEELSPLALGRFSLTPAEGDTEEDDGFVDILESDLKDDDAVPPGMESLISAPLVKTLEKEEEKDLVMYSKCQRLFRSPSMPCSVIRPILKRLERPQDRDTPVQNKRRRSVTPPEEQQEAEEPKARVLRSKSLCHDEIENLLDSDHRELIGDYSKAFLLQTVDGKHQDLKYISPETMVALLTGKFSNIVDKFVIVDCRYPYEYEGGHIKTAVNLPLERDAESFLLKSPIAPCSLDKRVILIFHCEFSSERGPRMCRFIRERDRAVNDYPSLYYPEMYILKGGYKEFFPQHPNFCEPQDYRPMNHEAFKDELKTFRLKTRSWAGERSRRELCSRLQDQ
Nature of the assay: Inhibition of CDC25B.

Assay [2] addresses T1, M-phase inducer phosphatase 2. Put plainly: Inhibition of CDC25B in presence of 2 mM DTT.

pIC50: −log10 of the molar value.

Usually pIC50 stands for −log10 of the IC50, conventionally taken in molar units. On to `CCCCCCCCCCCCCCCC(NCc1ccccc1O)=C1C(=O)OC(CO)C1=O` (mixture of isomers), for which the pIC50 in assay [1] and in assay [2] was 5.37 in each case.
